From ChEMBL document CHEMBL1123145, “Synthesis of pyrrolizidine alkaloids indicine, intermedine, lycopsamine, and analogues and their N-oxides. Potential antitumor agents” (1985) come the findings set out here.

The test system of test [1] is P388. As to the kind of experiment: Weight difference observed in survivors treated for antitumor activity against P388 Lymphocytic Leukemia system at a dose of 150 mg/kg.
For test [2], the system named is P388. As to the kind of experiment: Survival rate of the animals determined for antitumor activity against P388 Lymphocytic Leukemia system at a dose of 150 mg/kg.
Test [3] has as its system P388. As to the kind of experiment: Weight difference observed in survivors treated for antitumor activity against P388 Lymphocytic Leukemia system at a dose of 75 mg/kg.
Test [4] has as its system P388. The experiment in a line: Number of Survivors determined for antitumor activity against P388 Lymphocytic Leukemia system on day 5 at a dose of 300 mg/kg (6 out of 6).
Test [5] relates to P388. As to the kind of experiment: Number of Survivors determined for antitumor activity against P388 Lymphocytic Leukemia system on day 5 at a dose of 75 mg/kg (6 out of 6).
The test system of test [6] is P388. The experiment in a line: Number of Survivors determined for antitumor activity against P388 Lymphocytic Leukemia system on day 5 at a dose of 150 mg/kg (6 out of 6).
For test [7], the system named is P388. The experiment in a line: Survival rate of the animals determined for antitumor activity against P388 Lymphocytic Leukemia system at a dose of 300 mg/kg.
The test system of test [8] is P388. The experiment in a line: Weight difference observed in survivors treated for antitumor activity against P388 Lymphocytic Leukemia system at a dose of 300 mg/kg.
The test system of test [9] is P388. As to the kind of experiment: Weight difference observed in survivors treated for antitumor activity against P388 Lymphocytic Leukemia system at a dose of 37.5 mg/kg.
For test [10], the system named is P388. As to the kind of experiment: Number of Survivors determined for antitumor activity against P388 Lymphocytic Leukemia system on day 5 at a dose of 37.5 mg/kg (6 out of 6).
In test [11] the test system is P388. As to the kind of experiment: Survival rate of the animals determined for antitumor activity against P388 Lymphocytic Leukemia system at a dose of 75 mg/kg.
Test [12] deals with P388. As to the kind of experiment: Survival rate of the animals determined for antitumor activity against P388 Lymphocytic Leukemia system at a dose of 37.5 mg/kg.

Each structure is given as a SMILES string.

On to `CCC(O)(C(=O)OCC1=CC[N+]2([O-])CCC(O)C12)c1ccccc1` (configuration not stated), for which the T-C in the test on P388 [1] is -2.1; in the test with P388 [3] it was -1.7; in the test on P388 [8] it was -2.2; in the test on P388 [9], -1.1. Also, the T/C in the test with P388 [2] worked out at 157%; in the test on P388 [7] it was 166%; in the test on P388 [11], 149%; in the test on P388 [12], 146%. Further, the Survivors in the test with P388 [4], in the test on P388 [5], with P388 [6] and with P388 [10] was 6 in each case.
